Source: BindingDB's records for US10793556

By UniProt entry, the sequences of proteins in these tests, tags left out.
UniProt P41146, whole entry: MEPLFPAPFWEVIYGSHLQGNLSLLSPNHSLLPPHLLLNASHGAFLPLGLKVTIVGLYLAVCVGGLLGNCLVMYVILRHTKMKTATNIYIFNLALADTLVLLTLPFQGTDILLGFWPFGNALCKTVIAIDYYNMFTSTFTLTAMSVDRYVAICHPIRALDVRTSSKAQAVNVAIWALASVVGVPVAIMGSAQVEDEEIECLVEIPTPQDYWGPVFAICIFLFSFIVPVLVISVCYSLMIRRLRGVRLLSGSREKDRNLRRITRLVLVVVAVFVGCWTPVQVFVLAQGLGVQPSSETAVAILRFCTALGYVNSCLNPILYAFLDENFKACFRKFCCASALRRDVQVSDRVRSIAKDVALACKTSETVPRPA
UniProt P35372, whole entry: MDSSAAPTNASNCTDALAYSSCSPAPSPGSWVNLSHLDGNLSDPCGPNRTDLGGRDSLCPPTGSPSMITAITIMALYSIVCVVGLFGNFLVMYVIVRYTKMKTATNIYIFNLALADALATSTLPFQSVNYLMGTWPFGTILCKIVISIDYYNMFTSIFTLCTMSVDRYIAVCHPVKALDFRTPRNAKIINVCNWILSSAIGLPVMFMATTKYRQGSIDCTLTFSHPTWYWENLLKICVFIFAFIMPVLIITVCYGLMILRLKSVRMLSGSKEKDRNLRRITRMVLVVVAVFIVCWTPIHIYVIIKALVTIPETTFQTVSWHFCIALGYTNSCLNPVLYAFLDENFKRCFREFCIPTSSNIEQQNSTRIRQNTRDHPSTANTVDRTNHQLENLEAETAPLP

How the values were obtained:
[1] = molecular target: Nociceptin receptor (Homo sapiens, UniProt P41146); assay: ASSAY_NAME: Receptor Binding Assay DESCRIPTION: The hNOP receptor binding assay was performed as homogeneous SPA-assay (scintillation proximity assay) using the assay buffer 50 mM TRIS-HCl. 10 mM MgCl2. 1 mM EDTA (pH 7.4). The final assay volume (250 μl/well) included 0.5 nM of [leucyl-3H]nociceptin as ligand (PerkinElmer Life Sciences. Inc. Boston. Mass. USA). and either test compound in dil
[2] = molecular target: Mu-type opioid receptor (Homo sapiens, UniProt P35372); assay: ASSAY_NAME: Receptor Binding Assay DESCRIPTION: The hMOP receptor binding assay was performed as homogeneous SPA-assay (scintillation proximity assay) using the assay buffer 50 mM TRIS-HCl (pH 7.4) supplemented with […] bovine serum albumin (Sigma-Aldrich Co. St. Louis. Mo.). The final assay volume (250 ul/well) included 1 nM of [N-allyl-2.3-3H]naloxone as ligand (PerkinElmer Life Sciences

Q: What does the source list for CN(C)[C@]1(c2cccc(F)c2)CC[C@]2(CC1)CN(CC1(O)CCS(=O)(=O)CC1)C(=O)N2CC1(O)CCC1?
A: Ki [1]: 114 nM; Ki [2]: 4360 nM
